# From patent publication US7723368B2, “Amino-5-[4-(difluoromethoxy)phenyl]-5-phenylimidazolone compounds for the inhibition of beta-secretase” (Wyeth LLC, priority 2007, dated 2010)
# The chains behind the UniProt entries cited, without tags or fusion partners. Residues count along the entry.
# UniProt P56817, 46-501 limits assumed: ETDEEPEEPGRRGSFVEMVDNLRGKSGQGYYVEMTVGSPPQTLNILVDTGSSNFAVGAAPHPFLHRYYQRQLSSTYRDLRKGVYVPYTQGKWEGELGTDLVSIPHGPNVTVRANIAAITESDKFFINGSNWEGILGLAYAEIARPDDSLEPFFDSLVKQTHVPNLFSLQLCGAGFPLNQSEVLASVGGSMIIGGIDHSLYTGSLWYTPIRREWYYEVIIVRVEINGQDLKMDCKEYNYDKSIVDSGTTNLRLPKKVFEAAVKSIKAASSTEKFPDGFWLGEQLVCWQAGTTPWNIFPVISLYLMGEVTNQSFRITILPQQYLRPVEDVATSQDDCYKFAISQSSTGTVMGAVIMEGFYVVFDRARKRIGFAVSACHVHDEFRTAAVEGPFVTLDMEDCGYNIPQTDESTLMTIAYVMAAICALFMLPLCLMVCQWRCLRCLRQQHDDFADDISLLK
# Target: human BACE1 (Homo sapiens, UniProt P56817)
# Test: BACE1 fluorescent kinetic assay (cleavage of peptide substrate WABC-6)
# Assay type: biochemical
# Conditions: read-out: BACE1 IC50 μM; Activity Table, Examples 1-108; 10 nM enzyme, 25 μM substrate WABC-6, pH 4.5, room temperature; tested form: HCl
smiles,measurement,value
CC=CCNc1cccc(C2(c3ccc(OC(F)F)cc3)N=C(N)N(C)C2=O)c1 (stereo not shown),IC50,0.11 to 1 µM
